Source: PubChem BioAssay AID652104 (National Center for Advancing Translational Sciences (NCATS), 2013)
The entries are a selection whose mix differs from that of the whole data set. Records with an inconclusive call do not appear. Activity calls are given as the source filed them. Calls follow the shape of the dose curve; as a rule, active = well fitted activation curve with a large enough effect; inconclusive = small, poorly fitted or top-dose-only effect, or another doubt; inactive = no such curve, though single readings can be large or run the other way.

Assay: qHTS of TDP-43 Inhibitors; also: nearly all actives have a fitted effect of over 50% in size; as to growth rescue (activation): % of control where 0% means no effect
Conditions: TDP-43 expressing yeast growth rescue, BacTiter-Glo, 24 h; series mostly up to 46.1 µM; growth rescue (activation): at the top concentration
Potency is read from the fitted curve at half-maximal effect.

Structure (SMILES)	growth rescue (activation)	Potency
O=[N+]([O-])c1ccc2c(c1)C=Nc1ccccc1O2	inactive: -19.7% [at 0.397 µM]	
CC(C)(C)c1ccc(OP(C)(=O)Nc2ccc(SC(F)(F)F)cc2)cc1 (stereo not drawn)	inactive: -4.16%	
Cc1cccc(C)c1OP(C)(N)=O (stereo not drawn)	inactive: -3.61%	
O=[N+]([O-])c1cc([N+](=O)[O-])c(Nc2cccnc2)c([N+](=O)[O-])c1	inactive: 36.1%	
Cc1cc(C)cc(OP(C)(N)=O)c1 (stereo not drawn)	inactive: 0%	
COc1ccccc1OP(C)(=O)Nc1cc(Cl)ccc1C (stereo not drawn)	inactive: -25.5%	
COc1ccc(OP(C)(=O)Nc2cccc(F)c2)cc1 (stereo not drawn)	inactive: -13%	
COc1ccccc1OP(C)(=O)Nc1ccc(C)cc1 (stereo not drawn)	inactive: 4.29%	
Cc1ccc(NP(C)(=O)Oc2ccccc2)c(C)c1 (stereo not drawn)	inactive: 8.3%	
CCOC(=O)c1ccc(NP(C)(=O)Oc2ccccc2)cc1 (stereo not drawn)	inactive: 25.4%	
CCN(CC)CCCOC(=O)C(O)(c1ccccc1)c1ccccc1	inactive: 24.2%	
COc1ccccc1-c1ccccn1.O=[N+]([O-])c1cc([N+](=O)[O-])c(O)c([N+](=O)[O-])c1	inactive: 17.1%	
CP(=O)(NC(=O)Nc1ccccc1)Oc1ccccc1 (stereo not drawn)	inactive: -9.75%	
CCc1ccc(OP(C)(=O)N2CCN(c3ccc([N+](=O)[O-])cc3)CC2)cc1 (stereo not drawn)	inactive: 10.4%	
CP(=O)(Nc1ccc(SC(F)(F)F)cc1)Oc1ccc(Cl)cc1 (stereo not drawn)		active: 22.4 µM
Cc1cccc(C)c1OP(C)(=O)Nc1ccc(SC(F)(F)F)cc1 (stereo not drawn)	inactive: 0.965%	
CP(=O)(Oc1ccccc1)OC(c1ccccc1)C(F)(F)F (stereo not drawn)	inactive: 15.6%	
CP(=O)(Nc1ccccn1)Oc1ccc(Cl)cc1 (stereo not drawn)	inactive: -8.15%	
O=[N+]([O-])c1cc([N+](=O)[O-])c(O)c([N+](=O)[O-])c1.c1ccc(Oc2ccncc2)cc1	inactive: -8.48%	
CCOC(=O)c1ccc(NP(C)(=O)Oc2ccc(OC)cc2)cc1 (stereo not drawn)	inactive: 17.6%	
CCOP(C)(=S)SCC(=O)NC(C)C(=O)O (stereo not drawn)	inactive: 10.4%	
CP(=O)(Nc1ccccc1Br)Oc1ccccc1 (stereo not drawn)	inactive: 24.9%	

Structure (SMILES)	growth rescue (activation)	Potency
COc1ccccc1OP(C)(=O)Nc1ccccc1 (stereo not drawn)	inactive: 8.98%	
CP(=S)(Nn1cnnc1)Oc1ccccc1 (stereo not drawn)	inactive: -6.09%	
CC1=C2N=C(C=C3N=C(C(C)=C4[N-][C@@](C)([C@@H]5N=C1[C@](C)(CCC(=O)NC[C@@H](C)OP(=O)([O-])O[C@H]1[C@@H](O)[C@@H](n6cnc7cc(C)c(C)cc76)O[C@@H]1CO)[C@H]5CC(N)=O)[C@@](C)(CC(N)=O)[C@@H]4CCC(N)=O)[C@@](C)(CC(N)=O)[C@@H]3CCC(N)=O)C(C)(C)[C@@H]2CCC(N)=O.[C-]#N.[Co+3]	inactive: -2.31%	
O=[N+]([O-])c1cc([N+](=O)[O-])c(Nc2nnnn2CCO)c([N+](=O)[O-])c1	inactive: -13.7%	
COc1ccc(-c2ccccn2)cc1.O=[N+]([O-])c1cc([N+](=O)[O-])c(O)c([N+](=O)[O-])c1	inactive: 24.7%	
CCCOc1ccc(NP(C)(=O)Oc2ccc(Cl)cc2)cc1 (stereo not drawn)	inactive: 16%	
CP(=O)(Nc1ccc(SC(F)(F)F)cc1)Oc1ccccc1 (stereo not drawn)	inactive: 0%	
CN1CCCCC1COC(=O)C1(O)c2ccccc2CCc2ccccc21 (stereo not drawn)	inactive: -25.6%	
COc1ccccc1OP(C)(=O)Nc1c(C)cccc1C (stereo not drawn)	inactive: -3.69%	
CN(Cc1cccnc1)C(=O)COc1ccc(Cl)c(Cl)c1.O=[N+]([O-])c1cc([N+](=O)[O-])c(O)c([N+](=O)[O-])c1	inactive: 22.9%	
O=[N+]([O-])c1cc([N+](=O)[O-])c(-n2nnc3ccccc32)c([N+](=O)[O-])c1	inactive: -16.4% [at 9.22 µM]	
Cc1nc2ccc3ccccc3c2s1.O=[N+]([O-])c1cc([N+](=O)[O-])c(O)c([N+](=O)[O-])c1	inactive: 4.49%	
O=[N+]([O-])c1cc([N+](=O)[O-])c(-c2cnn(-c3ccccc3)c2)c([N+](=O)[O-])c1	inactive: -45.1%	
CCOC(=O)c1ccc(NP(C)(=O)Oc2cc(C)cc(C)c2)cc1 (stereo not drawn)	inactive: 0.679%	
Cc1cc(C)cc(OP(C)(=O)Nc2ccc(C)cc2C)c1 (stereo not drawn)	inactive: -12.4%	
COc1ccccc1OP(C)(=O)Nc1cccc(Br)c1 (stereo not drawn)	inactive: -2.66%	
Cc1ccc(C)c(NP(C)(=O)Oc2ccccc2)c1 (stereo not drawn)	inactive: 3.7%	
Cc1cc(C)cc(OP(C)(=O)Nc2ccccn2)c1 (stereo not drawn)	inactive: -1.36%	
CP(=O)(Nc1cccc(Br)c1)Oc1ccccc1 (stereo not drawn)	inactive: -15.4% [at 0.397 µM]	
CC1=NCCc2c1[nH]c1ccccc21.O=[N+]([O-])c1cc([N+](=O)[O-])c(O)c([N+](=O)[O-])c1	inactive: -14.5%	
CCOC(=O)c1ccc(NP(C)(=O)Oc2ccc(F)cc2)cc1 (stereo not drawn)	inactive: 16.4%	
